Consider one compound from ChEMBL document CHEMBL5543128, “Recent Discovery and Development of Inhibitors that Target CDK9 and Their Therapeutic Indications” (J Med Chem, 2024).

Protein sequences, listed by entry. Tags and fused reporters are not part of them.
UniProt P50750, whole entry: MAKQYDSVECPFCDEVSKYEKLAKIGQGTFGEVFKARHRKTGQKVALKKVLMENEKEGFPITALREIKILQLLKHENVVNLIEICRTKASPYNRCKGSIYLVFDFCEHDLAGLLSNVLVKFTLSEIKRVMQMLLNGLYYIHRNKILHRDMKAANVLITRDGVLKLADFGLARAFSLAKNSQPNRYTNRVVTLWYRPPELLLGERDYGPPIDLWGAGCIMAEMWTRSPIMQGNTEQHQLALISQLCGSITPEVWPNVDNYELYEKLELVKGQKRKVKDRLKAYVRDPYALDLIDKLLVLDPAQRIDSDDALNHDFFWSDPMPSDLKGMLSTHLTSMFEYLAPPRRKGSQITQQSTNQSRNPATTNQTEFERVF

This test has as its target CDK9/cyclin T1 (Homo sapiens, UniProt P50750). Briefly: Inhibition of CDK9/cyclin T1 (unknown origin). Type of test: protein-complex assay.

For orientation: IC50 means the concentration at which inhibition is half-maximal. A high value points to lower potency. As to `O=c1cc(-c2cccc(O)c2)oc2c1ccc1occc12`, the IC50 stood at 930 nM.
